# In US10125117B2, “Activation or reactivation of ache” (dated 2018):
# Several values for one entry are separate records, joined by “and”; a condition that tells them apart may be missing. Equal entries are not always repeated. Where two headings read alike, the source gives them in different places.
# Test system: mice challenged with DFP
Molecule,"molar excess of 2-PAM needed for similarly protective effects (mice, DFP challenge)","protection against DFP lethality in vivo (mice, DFP challenge)","mice surviving 24 hours (5 mg in feed 1 day prior to 1.6×LD50 s.c. DFP, listed as ADQ)","mice surviving 24 hours (120 mg/kg total ip, 20 minutes prior to and 5 minutes post DFP)",mice surviving 24 hours (given about 1-5 minutes after 1.6×LD50 s.c. DFP)
pralidoxine,100 fold,ineffective,–,–,–
Clc1ccc(OCCCCCn2ccnc2)c(Cl)c1,–,protect against DFP lethality,–,–,–
CCN(CC)Cc1cc(Nc2ccnc3cc(Cl)ccc23)ccc1O,–,provides protection,3 out of 3 and 5 out of 5,–,–
O=C(NCCCn1ccnc1)c1cc(-c2ccncc2)nc2ccccc12,–,protect against DFP lethality,–,–,–
CCN(CC)Cc1cc(N)ccc1O,–,complete protection,–,5/5,5 out of 5
